Some results are limits rather than exact numbers.

By UniProt entry, the sequences of proteins in these tests, tags left out.
UniProt O60502, whole entry: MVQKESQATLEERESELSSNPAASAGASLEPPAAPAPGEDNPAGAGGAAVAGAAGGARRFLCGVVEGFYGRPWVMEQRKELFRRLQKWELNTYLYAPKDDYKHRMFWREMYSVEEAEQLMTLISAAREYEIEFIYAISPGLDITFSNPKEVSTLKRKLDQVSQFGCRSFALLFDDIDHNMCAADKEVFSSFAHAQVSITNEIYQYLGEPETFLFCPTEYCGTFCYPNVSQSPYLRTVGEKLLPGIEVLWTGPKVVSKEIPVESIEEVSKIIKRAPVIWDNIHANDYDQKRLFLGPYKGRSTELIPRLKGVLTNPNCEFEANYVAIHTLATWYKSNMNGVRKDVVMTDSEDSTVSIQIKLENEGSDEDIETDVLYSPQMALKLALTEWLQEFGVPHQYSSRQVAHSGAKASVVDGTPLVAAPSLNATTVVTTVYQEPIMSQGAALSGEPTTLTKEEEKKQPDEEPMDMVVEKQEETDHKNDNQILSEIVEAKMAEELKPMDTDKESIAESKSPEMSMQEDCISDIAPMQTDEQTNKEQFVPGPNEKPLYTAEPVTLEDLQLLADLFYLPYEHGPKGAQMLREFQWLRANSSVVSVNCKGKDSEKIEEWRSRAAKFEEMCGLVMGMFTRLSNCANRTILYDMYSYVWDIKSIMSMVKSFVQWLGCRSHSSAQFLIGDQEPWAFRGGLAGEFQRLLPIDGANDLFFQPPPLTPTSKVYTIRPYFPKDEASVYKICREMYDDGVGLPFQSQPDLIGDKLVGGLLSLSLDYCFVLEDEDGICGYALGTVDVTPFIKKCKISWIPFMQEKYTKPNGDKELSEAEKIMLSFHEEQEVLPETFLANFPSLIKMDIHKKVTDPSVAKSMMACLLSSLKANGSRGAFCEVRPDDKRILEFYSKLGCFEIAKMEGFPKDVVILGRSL
UniProt Q8VIJ5, whole entry: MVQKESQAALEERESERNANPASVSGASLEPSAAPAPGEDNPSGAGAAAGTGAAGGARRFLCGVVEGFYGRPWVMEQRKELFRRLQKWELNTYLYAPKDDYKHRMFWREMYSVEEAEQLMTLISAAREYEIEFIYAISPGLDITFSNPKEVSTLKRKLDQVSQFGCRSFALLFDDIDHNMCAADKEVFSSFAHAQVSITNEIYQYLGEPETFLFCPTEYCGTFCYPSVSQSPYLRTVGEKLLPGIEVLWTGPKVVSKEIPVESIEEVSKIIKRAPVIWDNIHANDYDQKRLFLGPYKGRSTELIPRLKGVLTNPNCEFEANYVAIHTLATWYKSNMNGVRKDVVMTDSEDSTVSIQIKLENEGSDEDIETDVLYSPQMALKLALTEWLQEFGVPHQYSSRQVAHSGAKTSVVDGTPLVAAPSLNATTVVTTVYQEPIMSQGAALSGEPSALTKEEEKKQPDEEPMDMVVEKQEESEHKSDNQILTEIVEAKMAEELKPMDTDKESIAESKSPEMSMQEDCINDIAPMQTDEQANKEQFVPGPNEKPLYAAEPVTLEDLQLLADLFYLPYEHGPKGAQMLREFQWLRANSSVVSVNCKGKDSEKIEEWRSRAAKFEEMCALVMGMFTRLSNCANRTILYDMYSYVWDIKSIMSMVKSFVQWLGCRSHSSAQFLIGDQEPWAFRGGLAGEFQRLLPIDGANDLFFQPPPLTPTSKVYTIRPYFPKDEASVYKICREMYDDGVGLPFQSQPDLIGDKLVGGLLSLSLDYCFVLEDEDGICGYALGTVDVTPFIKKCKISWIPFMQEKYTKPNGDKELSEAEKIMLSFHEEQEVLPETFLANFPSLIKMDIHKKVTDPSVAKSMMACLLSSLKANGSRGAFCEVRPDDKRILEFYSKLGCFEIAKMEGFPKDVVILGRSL

The term IC50 denotes the concentration needed to halve the response being measured. Usually EC50 stands for the concentration at which the effect is half-maximal.

The target of assay [1] is His-Tagged hOGA (human O-GlcNAcase) (Homo sapiens, UniProt O60502). The conditions noted are these: read-out: OGA enzyme inhibition (IC50); 20 nM His-Tagged hOGA, 10 μM FL-GlcNAc, pH 6.5, 60 min room temperature; tested form: TFA.
For assay [2], the target named is O-GlcNAcase (UniProt Q8VIJ5). Conditions: read-out: OGA cellular inhibition (EC50); cells expressing endogenous O-GlcNAcase (such as rat B35, rat PC-12, human SH-SY5Y), approximately 16 hours treatment; tested form: TFA.

Consider `CCNC1=N[C@@H]2[C@@H](O)[C@H](O)[C@@H](Cn3cc(Cn4nc(C)c(C)c4C)nn3)O[C@@H]2S1`, for which the IC50 in assay [1] was less than 100 nM. For the same compound, in assay [2], the EC50 is greater than 1000 nM.

For the origin of these results see US8884023B2, “Pyrano [3,2-D][1,3]thiazole as glycosidase inhibitors” (priority 2011, dated 2014).
